Laboratory results reported in publication PMC10485003, “Antibiotic hyper-resistance in a class I aminoacyl-tRNA synthetase with altered active site signature motif” (Nature Communications, 2023).

Amino acid sequences for entries named in this document (tags omitted). A change or cut given only in a name is not applied to a line headed by its entry.
UniProt Q9RUP8: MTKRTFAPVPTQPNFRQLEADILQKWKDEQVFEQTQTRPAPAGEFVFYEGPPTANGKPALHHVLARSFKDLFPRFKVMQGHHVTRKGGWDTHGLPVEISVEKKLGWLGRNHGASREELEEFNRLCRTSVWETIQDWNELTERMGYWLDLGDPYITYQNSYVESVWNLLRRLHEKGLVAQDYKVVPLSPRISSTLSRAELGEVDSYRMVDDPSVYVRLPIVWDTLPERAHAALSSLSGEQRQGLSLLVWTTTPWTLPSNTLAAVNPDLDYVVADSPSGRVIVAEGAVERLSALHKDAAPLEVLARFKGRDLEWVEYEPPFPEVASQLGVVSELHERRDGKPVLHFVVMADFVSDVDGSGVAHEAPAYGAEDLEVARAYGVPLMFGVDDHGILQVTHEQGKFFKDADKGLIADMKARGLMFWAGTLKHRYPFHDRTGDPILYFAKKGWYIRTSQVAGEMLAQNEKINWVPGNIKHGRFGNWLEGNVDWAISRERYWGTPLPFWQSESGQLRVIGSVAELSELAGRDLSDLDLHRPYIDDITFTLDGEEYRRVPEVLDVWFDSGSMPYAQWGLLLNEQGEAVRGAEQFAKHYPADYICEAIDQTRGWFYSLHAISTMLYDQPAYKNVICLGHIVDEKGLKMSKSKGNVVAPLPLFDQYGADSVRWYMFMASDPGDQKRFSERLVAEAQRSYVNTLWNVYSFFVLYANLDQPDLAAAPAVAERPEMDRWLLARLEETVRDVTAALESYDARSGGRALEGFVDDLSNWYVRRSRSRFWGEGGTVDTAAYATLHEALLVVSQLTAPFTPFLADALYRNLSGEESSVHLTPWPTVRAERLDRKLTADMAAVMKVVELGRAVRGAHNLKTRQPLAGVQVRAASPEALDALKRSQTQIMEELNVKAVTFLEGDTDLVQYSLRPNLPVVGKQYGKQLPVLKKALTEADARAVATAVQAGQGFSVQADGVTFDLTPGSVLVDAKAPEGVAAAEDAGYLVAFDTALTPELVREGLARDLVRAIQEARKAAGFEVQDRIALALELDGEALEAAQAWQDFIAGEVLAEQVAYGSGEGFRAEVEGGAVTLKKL

How the values were obtained:
Test in all cases: ATP-PPi exchange assay, mupirocin inhibition of amino acid activation
[1] = test system: W130Q PmIleRS2; format: biochemical, Priestia (Bacillus) megaterium; conditions: c (mupirocin) = 1.0 μM; c (Ile) 10.0 μM; Replica 1-3; raw data for KI(MUP) towards Ile
Experimental: (§1) L-Ile and ATP concentrations ranged from 1/10 KM to 10 KM values. When measuring the KI towards one of the substrates, the other was held in saturation (concentrations at least 10 KM). The aliquots of the reaction mixture (1–2.5 μl) were quenched in 2 volumes of 500 mM NaOAc pH = 4.5, 0.1% SDS, and formed ^32P-ATP was separated from the remaining ^32P-PPi by thin-layer chromatography on Polygram CEL 300 PEI UV254 TLC plates (Macherey-Nagel, cat: 801063) using 750 mM KH2PO4 pH=3.5, 4 M urea buffer. Visualization and quantification of the signals was performed using a Typhoon Phosphoimager 5 (General Electric) and accompanying ImageQuant™ TL software (SV: 10.2). The kinetic constants were determined using a global fit option of the competitive inhibition model of GraphPad Prism 6 software (SV: 6.01). All experiments were performed in triplicates. The kcat was determined by dividing the maximal velocity, VM, with the used enzyme concentration.
Supplementary Fig. 8: The HXGH motif displacement is not dictated by a steric clash with a nearby α2 helix residue. a, c, d, e) Structural analysis identifies the α2 helix position (W130) that is in close proximity to the 4th His of the HXGH motif. A sequence alignment highlights this position as bulky in IRS2 (W130) but not in IRS1 (Q136), […]

[2] = biological target: T1, wt-HVGH TtIleRS2 (Thermus thermophilus, UniProt P56690); format: biochemical; conditions: c(mupirocin) 5.0 μM; c(ATP) 15.0 mM
T1 construct: hexa-histidine tag (pET28b(+)) (N); made in house; host or cells: E. coli Rosetta2 (DE3)
T1 sequence (P56690 1-1043): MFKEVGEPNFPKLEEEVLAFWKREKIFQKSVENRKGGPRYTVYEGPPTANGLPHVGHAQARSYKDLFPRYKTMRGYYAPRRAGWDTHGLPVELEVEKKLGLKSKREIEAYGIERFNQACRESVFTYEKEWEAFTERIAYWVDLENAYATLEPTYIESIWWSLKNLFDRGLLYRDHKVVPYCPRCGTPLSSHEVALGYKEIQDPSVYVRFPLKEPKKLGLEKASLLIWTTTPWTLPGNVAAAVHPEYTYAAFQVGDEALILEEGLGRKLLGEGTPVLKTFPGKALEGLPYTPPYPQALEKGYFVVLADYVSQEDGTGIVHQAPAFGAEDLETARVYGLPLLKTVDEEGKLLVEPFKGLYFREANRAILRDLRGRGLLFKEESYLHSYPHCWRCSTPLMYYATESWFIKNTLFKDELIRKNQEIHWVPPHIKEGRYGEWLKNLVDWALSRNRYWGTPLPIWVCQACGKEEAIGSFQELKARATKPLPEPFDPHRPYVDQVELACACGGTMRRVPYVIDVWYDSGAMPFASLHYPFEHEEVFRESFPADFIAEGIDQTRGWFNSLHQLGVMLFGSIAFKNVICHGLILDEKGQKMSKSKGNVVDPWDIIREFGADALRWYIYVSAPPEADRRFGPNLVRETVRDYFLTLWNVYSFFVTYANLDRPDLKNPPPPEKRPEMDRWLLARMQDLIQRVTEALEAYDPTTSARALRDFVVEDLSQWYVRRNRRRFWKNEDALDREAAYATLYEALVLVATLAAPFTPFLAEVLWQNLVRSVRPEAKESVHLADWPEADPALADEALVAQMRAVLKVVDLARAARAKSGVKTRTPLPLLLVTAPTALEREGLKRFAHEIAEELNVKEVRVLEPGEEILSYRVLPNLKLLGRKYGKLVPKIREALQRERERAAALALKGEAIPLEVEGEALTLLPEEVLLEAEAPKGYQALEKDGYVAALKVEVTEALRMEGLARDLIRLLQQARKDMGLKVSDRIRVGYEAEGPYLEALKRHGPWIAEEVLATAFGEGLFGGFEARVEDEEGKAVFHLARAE
Experimental: as §1, with “concentration. […]” for “concentration.”
(§2) variable substrate (ATP or Ile) was varied in the range of 0.1 KM to 10 KM. The other substrate (Ile or ATP) was kept in excess at 5 to 10 KM. Data were globally fitted to the competitive inhibition model using GraphPad prism 6.01 for Windows software. The values represent the average value ± SD of three independent experiments. Source data are provided as a Source Data file.

[3] = biological target: T2, wt-ALHH DrIleRS2 (Deinococcus radiodurans, UniProt Q9RUP8); format: biochemical; conditions: amino acid activation step; higher
T2 construct: hexa-histidine tag (pET28b(+)) (N); made in house; host or cells: E. coli BL21(DE3)
Experimental: as §1, with “concentration. […]” for “concentration.”
as §2

C/C(=C\C(=O)OCCCCCCCCC(=O)O)C[C@@H]1OC[C@H](C[C@@H]2O[C@H]2[C@@H](C)[C@H](C)O)[C@@H](O)[C@H]1O [mupirocin]
vo (initial enzyme velocity) [1]: 0.01783 mM/min and 0.01799 mM/min | initial velocity vo [2]: 0.01745 mM/min | Ki relative to the Ki of the IleRS2 enzymes carrying the canonical HXGH motif [3]: > 10^3 fold

Where “and” joins values, the source holds several entries; their conditions need not be identical. Identical values can stand only once.
